{"source": "patent US12576081B2", "about": "“Methods and compositions for improving exercise performance, single ventricular performance, cardiac output and myocardial performance index (MPI) in single ventricular heart disease, using udenafil compositions” (MEZZION PHARMA CO., LTD., priority 2019, dated 2026)", "type_in_all_cases": "in vivo, human", "key": {"[1]": {"test_system": "adolescents with SVHD who had undergone Fontan palliation", "experiment": "FUEL trial, serum brain-type natriuretic peptide", "conditions": "p=0.18"}, "[2]": {"test_system": "adolescents with SVHD who had undergone Fontan palliation", "experiment": "FUEL trial, cardiopulmonary exercise test (cycle ergometer ramp protocol), peak exercise and ventilatory anaerobic threshold", "conditions": "87.5 mg twice daily, baseline to week 26; stated as size of decrease; p=0.011 vs placebo", "experimental": "The FUEL Trial was conducted at 30 centers around the world. The FUEL Trial was a Phase 3, randomized, double-blind, placebo-controlled trial of udenafil in adolescents with SVHD who had undergone Fontan palliation. (Funded by Mezzion Pharma Co. Ltd., and conducted by the National Heart, Lung, and Blood Institute-funded Pediatric Heart Network; ClinicalTrials.gov number NCT02741115).\n(§1) The primary aim was to determine the effect of udenafil on exercise capacity in adolescents with Fontan physiology over a six-month period. The primary outcome was the change in oxygen consumption at peak exercise (max or peak VO2) from baseline to the 26-week visit. […] Safety was monitored through adverse event reports, which were collected according to a pre-specified protocol of study coordinator outreach, and through ad hoc patient and family communication with members of the study team at each site.\n(§2) Baseline clinical testing completed before drug initiation included a blood draw to measure brain-type natriuretic peptide (BNP) level, a cardiopulmonary exercise test (CPET) using a standardized cycle ergometer ramp protocol, a standardized echocardiogram, and an assessment of peripheral vascular function using peripheral arterial tonometry (PAT) measured by finger cuff (EndoPAT; Itamar Medical, Israel). […]"}, "[3]": {"test_system": "adolescents with SVHD who had undergone Fontan palliation", "experiment": "FUEL trial, echocardiographic myocardial performance index (blood pool Doppler)", "conditions": "ITT population, baseline before drug", "excerpt": "Generally speaking, MPI (also referred to as the Doppler-derived index or Tei Index) is a measure of ventricular systolic and diastolic function as determined by a focused echocardiogram. It combines systolic and diastolic time intervals to assess heart function. More specifically, MPI can be used to assess ventricular performance represented by a numeric value using cardiac time intervals. This numeric value equals the sum of isovolumetric contraction time (ICT) and isovolumetric relaxation time (IRT) divided by ejection time (ET) and can be determined for either the left or right ventricle. Pellett, A. A., et al.: The Tei Index: Methodology and Disease. State Values. Echocardiography. A Jrnl. of CV Ultrasound & Allied Tech. 21(7):669-672 (2004); and Ulugay, A., Tatli E.: Myocardial performance index. […] In the FUEL Trial, the MPI measured the performance of the single functioning ventricle. Thus, the MPI results from the FUEL Trial were determined by velocities obtained from blood pool Doppler assessment of the inflow and outflow tract of the functioning single ventricle. In other words, the FUEL Trial MPI was determined by measuring the cardiac time intervals using pulsed-wave Doppler velocity spectra of the ventricular inflow and outflow of the single functioning ventricle. […]"}, "[4]": {"test_system": "adolescents with SVHD who had undergone Fontan palliation", "experiment": "FUEL trial, peripheral arterial tonometry (EndoPAT) reactive hyperemia index", "excerpt": "as §1, with “visit. Secondary exercise outcomes included change in additional measures at maximal exertion, as well as change in measures of submaximal exercise at the ventilatory anaerobic threshold (VAT).” for “visit.”\nas §2"}}, "note": "“Also recorded” adds a separate entry of the source.", "data": [{"smiles": "CCCOc1ccc(S(=O)(=O)NCCC2CCCN2C)cc1-c1nc2c(CCC)nn(C)c2c(=O)[nH]1", "note": "(centres unmarked) [Udenafil, udenafil]", "values": [{"measurement": "Change in log serum BNP level vs placebo (in words)", "setting": "[1]", "result": "not different between groups"}, {"measurement": "VE/VCO2 at VAT, decrease (improved ventilatory efficiency)", "setting": "[2]", "result": 0.8}, {"measurement": "Myocardial Performance Index (MPI), baseline, mean (SD)", "setting": "[3]", "result": "150: 0.45 (0.173)"}, {"measurement": "PAT-derived reactive hyperemia index, benefit over placebo (in words)", "setting": "[4]; 26 weeks", "result": "relative improvement in the PAT-derived reactive hyperemia index was not seen; also recorded: did not reveal a benefit"}, {"measurement": "Log-transformed reactive hyperemia index, difference LS mean (SE)", "setting": "[4]; udenafil vs placebo, change Week 26 − baseline, p 0.591", "result": "0.02 (0.030)"}]}]}
